# From patent US9612237B2, “Ritalinic acid immunoassay” (Randox Laboratories Limited, priority 2013, dated 2017)
# Test system: antisera generated in response to immunogen of Example 11
# Experiment: Competitive chemiluminescent biochip immunoassay, antisera raised against immunogen of Example 11, conjugate of Example 12
# Type: binding, sheep
# Details: value is the concentration at which no cross-reactivity was exhibited
smiles,measurement,value
CCC(=O)N(c1ccccc1)C1CCN(CCc2ccccc2)CC1,Concentration exhibiting no cross-reactivity,10 µg/mL

# This is a selection: effects in other tests are not listed, and their absence says nothing.
